Data taken from PMC6274316, “Significant Improvement of Metabolic Characteristics and Bioactivities of Clopidogrel and Analogs by Selective Deuteration” (Molecules, 2016).

Conditions: rat, 1000 ng/mL

COC(=O)[C@H](c1ccccc1Cl)N1CCc2sccc2C1 [clopidogrel, Clopidogrel]
first order rate of hydrolysis: 0.0219 min⁻¹ | slope of fitted line, first order decomposition (Figure 2): -0.0919
